The values that follow are results of earlier work, collected in patent publication US20080286340A1, “Buffered nicotine containing products” (priority 2007, published 2008).

For this data set the following is noted: cited from earlier work.

For the molecule `NC(=O)C[C@H](N)C(=O)O` [Aspargine], the Solubility in water was 25.1 g/kg.
